Earlier results in article PMC4703549 (Cancer research, 2015).

System: TNK2
Details: cited from earlier work

SMILES: Cc1nc(Nc2ncc(C(=O)Nc3c(C)cccc3Cl)s2)cc(N2CCN(CCO)CC2)n1 [dasatinib, N-(2-chloro-6-methyl-phenyl)-2-(6-(4-(2-hydroxyethyl)-piperazin-1-yl)-2-methylpyrimidin-4-ylamino)thiazole-5-carboxamide]
- binding to TNK2: low nanomolar range
